{
  "source": "ChEMBL document CHEMBL1649369",
  "about": "“Novel 4-aryl-pyrido[1,2-c]pyrimidines with dual SSRI and 5-HT(1A) activity. part 3” (Eur J Med Chem, 2011)",
  "format_in_all_cases": "functional, organism-based",
  "set-up_in_all_cases": "dose 5 mg/kg",
  "key": {"Mus musculus [1]": {"system": "Mus musculus", "assay": "Effect on hypothermia in Swiss albino mouse assessed as change in rectal body temperature at 5 mg/kg, ip after 120 mins by inducible hypothermia test"}, "Mus musculus [2]": {"system": "Mus musculus", "assay": "Effect on hypothermia in Swiss albino mouse assessed as change in rectal body temperature at 5 mg/kg, ip after 60 mins by inducible hypothermia test"}, "Mus musculus [3]": {"system": "Mus musculus", "assay": "Effect on hypothermia in Swiss albino mouse assessed as change in rectal body temperature at 5 mg/kg, ip after 90 mins by inducible hypothermia test"}, "Mus musculus [4]": {"system": "Mus musculus", "assay": "Effect on hypothermia in Swiss albino mouse assessed as change in rectal body temperature at 5 mg/kg, ip after 30 mins by inducible hypothermia test"}},
  "data": [
    {"smiles": "CCCN(CCC)C1CCc2cccc(O)c2C1", "note": "(centres undefined)", "values": [
      {"measurement": "deltaT", "setting": "Mus musculus [1]", "result": -0.2, "unit": "°C"},
      {"measurement": "deltaT", "setting": "Mus musculus [2]", "result": -1.2, "unit": "°C"},
      {"measurement": "deltaT", "setting": "Mus musculus [3]", "result": -0.7, "unit": "°C"},
      {"measurement": "deltaT", "setting": "Mus musculus [4]", "result": -1.4, "unit": "°C"}
    ]}
  ]
}
